Data: article PMC4309560, “Creating Novel Activated Factor XI Inhibitors through Fragment Based Lead Generation and Structure Aided Drug Design” (PLoS ONE, 2015)

Chains of the proteins cited; added tags and fusions are not shown. Residues count along the entry.
UniProt P03951, 19-387: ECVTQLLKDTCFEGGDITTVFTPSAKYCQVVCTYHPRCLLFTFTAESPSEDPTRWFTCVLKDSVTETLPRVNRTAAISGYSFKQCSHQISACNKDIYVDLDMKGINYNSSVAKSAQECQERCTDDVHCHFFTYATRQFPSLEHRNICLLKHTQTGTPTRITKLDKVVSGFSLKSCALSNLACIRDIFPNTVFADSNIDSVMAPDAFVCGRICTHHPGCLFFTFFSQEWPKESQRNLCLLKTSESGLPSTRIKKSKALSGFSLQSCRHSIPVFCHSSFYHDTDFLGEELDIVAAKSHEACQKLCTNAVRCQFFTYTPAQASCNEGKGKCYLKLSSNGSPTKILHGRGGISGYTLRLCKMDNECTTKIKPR
UniProt P03951, 388-625: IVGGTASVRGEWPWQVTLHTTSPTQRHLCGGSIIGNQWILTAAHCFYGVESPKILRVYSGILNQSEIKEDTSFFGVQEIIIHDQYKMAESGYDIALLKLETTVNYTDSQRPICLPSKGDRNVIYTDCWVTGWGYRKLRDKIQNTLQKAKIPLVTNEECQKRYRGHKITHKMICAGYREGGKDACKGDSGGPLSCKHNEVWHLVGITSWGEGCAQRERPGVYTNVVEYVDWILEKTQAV

Target: T1, Human FXIa (Homo sapiens, UniProt P03951)
T1 construct: purchased HTI, Essex Junction, USA
Assay: FXIa enzymatic chromogenic assay
Assay type: biochemical

6-methyl-3,4-dihydro-1H-quinolin-2-one [Compound 17]
IC50: > 1000 µM
